Results: patent US8946224B2, “Substituted [1,2,4]triazolo[4,3-A]pyrazines for medicaments and pharmaceutical compositions” (Redx Pharma Limited, priority 2010, dated 2015)

Tests used:
HMG-CoA reductase [1] = biological target: T1, HMG-CoA reductase (Homo sapiens, UniProt P04035); assay: biochemical
T1 sequence (P04035 340-888 limits assumed): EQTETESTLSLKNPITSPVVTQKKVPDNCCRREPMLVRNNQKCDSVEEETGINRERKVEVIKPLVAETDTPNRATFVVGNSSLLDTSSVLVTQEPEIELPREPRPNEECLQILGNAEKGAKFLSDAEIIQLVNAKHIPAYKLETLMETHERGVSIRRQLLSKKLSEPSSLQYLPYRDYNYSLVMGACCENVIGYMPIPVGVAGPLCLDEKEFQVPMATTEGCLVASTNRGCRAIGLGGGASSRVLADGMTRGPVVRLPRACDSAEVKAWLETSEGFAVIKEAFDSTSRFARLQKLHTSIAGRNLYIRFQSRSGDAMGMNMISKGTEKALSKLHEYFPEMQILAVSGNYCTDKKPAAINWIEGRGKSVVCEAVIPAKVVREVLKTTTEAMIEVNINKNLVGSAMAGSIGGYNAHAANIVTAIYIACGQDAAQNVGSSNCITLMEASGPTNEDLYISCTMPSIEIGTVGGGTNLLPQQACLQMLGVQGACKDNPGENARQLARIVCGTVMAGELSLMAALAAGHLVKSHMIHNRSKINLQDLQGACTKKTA

HMG-CoA reductase [2] = biological target: T1, HMG-CoA reductase; assay: HMG-CoA Reductase assay kit (Sigma-Aldrich CS1090), decrease in absorbance at 340 nm of NADPH

| SMILES | IC50 (HMG-CoA reductase [1]) [nM] | IC50 (HMG-CoA reductase [2]) [nM] | IC50 (HMG-CoA reductase [2]; read-out: IC50 (nm), Example 2) [nM] |
| --- | --- | --- | --- |
| COC1C[C@H](OCc2ccccc2)C[C@@H](/C=C/c2c(-c3ccc(F)cc3)nc(N(C)S(C)(=O)=O)nc2C(C)C)O1 (some centres unmarked) | 22 | – | – |
| COC1C[C@H](OC(=O)c2cccnc2)C[C@@H](/C=C/c2c(-c3ccc(F)cc3)nc(N(C)S(C)(=O)=O)nc2C(C)C)O1 (some centres unmarked) | < 1 | – | – |
| CC(C)OC1C[C@H](OCc2ccccc2)C[C@@H](/C=C/c2c(-c3ccc(F)cc3)nc(N(C)S(C)(=O)=O)nc2C(C)C)O1 (some centres unmarked) | 1 | – | – |
| CC(C)c1nc(N(C)S(C)(=O)=O)nc(-c2ccc(F)cc2)c1/C=C/[C@@H]1C[C@@H](OCc2ccccc2)CC(OC(C)(C)C)O1 (some centres unmarked) | – | 4 | – |
| CC(C)c1nc(N(C)S(C)(=O)=O)nc(-c2ccc(F)cc2)c1/C=C/[C@@H](O)C[C@@H](O)CC(=O)O [Rosuvastatin, reference compound] | 4 | – | 4 |
| C=CCOC1C[C@H](OCc2ccccc2)C[C@@H](/C=C/c2c(-c3ccc(F)cc3)nc(N(C)S(C)(=O)=O)nc2C(C)C)O1 (some centres unmarked) [drawing 221] | 3 | – | – |
| C=CCOC1C[C@H](OCc2ccccc2)C[C@@H](/C=C/c2c(-c3ccc(F)cc3)nc(N(C)S(C)(=O)=O)nc2C(C)C)O1 (some centres unmarked) [drawing 226] | – | – | 3 |
